# Laboratory results as given in US10544185B2 (Suzhou Zelgen Biopharmaceuticals Co., Ltd., priority 2015, dated 2020).
# Molecular target: T1, farnesoid X receptor (FXR) (Homo sapiens, UniProt Q96RI1)
# T1 sequence (Q96RI1 1-486): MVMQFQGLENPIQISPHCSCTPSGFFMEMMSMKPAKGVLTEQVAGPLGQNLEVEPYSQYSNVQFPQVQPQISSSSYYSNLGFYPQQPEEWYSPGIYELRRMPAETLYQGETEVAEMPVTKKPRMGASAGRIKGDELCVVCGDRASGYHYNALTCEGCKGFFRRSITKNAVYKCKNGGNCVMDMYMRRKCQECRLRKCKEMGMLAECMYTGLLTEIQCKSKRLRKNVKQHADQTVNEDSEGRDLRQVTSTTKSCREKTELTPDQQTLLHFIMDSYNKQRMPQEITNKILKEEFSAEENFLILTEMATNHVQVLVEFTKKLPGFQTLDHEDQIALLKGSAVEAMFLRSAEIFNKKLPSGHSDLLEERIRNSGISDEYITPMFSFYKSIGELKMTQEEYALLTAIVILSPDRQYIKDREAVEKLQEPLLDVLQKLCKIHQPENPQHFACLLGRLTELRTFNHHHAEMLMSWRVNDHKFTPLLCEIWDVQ
# Experiment: Recruitment Coactivator Assay (AlphaScreen) for FXR activation
# Assay type: biochemical
# Conditions: read-out: activating activity (EC50) for FXR
# Description: The farnesoid X receptor (FXR) activation of the compounds of the present invention is determined by Recruitment Coactivator Assay, i.e. AlphaScreen. Specific in vitro pharmacodynamic evaluation experimental program has referred to the literature J Pharmacol Exp Ther 350:56-68, July 2014.
substance,measurement,value
"3α, 7α-Dihydroxy-6α-(Ethyl-d4)-7-d-5β-Cholan-24-Oic Acid [Example 6]",EC50,< 200 nM
